Measurements from patent US10759791B2, “Mammalian and bacterial nitric oxide synthase inhibitors” (Northwestern University, priority 2014, dated 2020).
“And” between values parts separate entries of the source, which are not always exact repeats. Equal values may be shown once.

Legend:
in vitro = details: human, plasma
[1] = 5 μM, 4 h
rat nNOS [2] = target: T1, rat nNOS (Rattus norvegicus (Rat), UniProt P29476); experiment: Oxyhemoglobin NO assay, Ki (Table 9); format: biochemical
human nNOS = human nNOS (Homo sapiens (Human), UniProt P29475); experiment: Hemoglobin capture assay, Ki (Example 159); format: biochemical; details: human nNOS vs human eNOS
rat nNOS [3] = target: T1, rat nNOS; experiment: Hemoglobin capture assay, Ki (Example 159); format: biochemical

CNCCCc1cncc(CCc2cc(C)cc(N)n2)c1 [Compound 14j, 4-Methyl-6-(2-(5-(3-(methylamino)propyl)pyridin-3-yl)ethyl)pyridin-2-amine]
fraction unbound at 4 h, 5 μM (in vitro; pH 7.4, % Bound Mean ± SD, 5 μM): 0.8 | fraction unbound at 4 h, 5 μM (in vitro; pH 7.4, % Bound R1, 5 μM): 0.744 | fraction unbound at 4 h, 5 μM (in vitro; pH 7.4, % Bound R2, 5 μM): 0.746 | fraction unbound at 4 h, 5 μM (in vitro; pH 7.4, % Bound R3, 5 μM): 0.826 | % Bound Mean ± SD [1]: 20% and 22.8 ± 4.7%

CNCCN(C)c1cc(C#N)cc(CCc2cc(C)cc(N)n2)c1 [Compound 19c, 3-(2-(6-Amino-4-methylpyridin-2-yl)ethyl)-5-(methyl(2-(methylamino)ethyl)amino)benzonitrile]
e/n (rat nNOS [2]; ratio Ki eNOS to Ki rat nNOS): 1040 | i/n (rat nNOS [2]; ratio Ki iNOS to Ki rat nNOS): 153

Cc1cc(N)nc(CCc2cncc(CCCN(C)C)c2)c1 [Compound 14k, 6-(2-(5-(3-(Dimethylamino)propyl)pyridin-3-yl)ethyl)-4-methylpyridin-2-amine]
Selectivity n/e (human) (human nNOS): 1068 | Ki (rat nNOS [3]): 25 nM | Selectivity n/e (rat nNOS [3]; rat nNOS vs bovine eNOS): 665 | Selectivity n/i (rat nNOS [3]; rat nNOS vs murine iNOS): 59
